# Antibody variant affinities, Ab-95 light chain, assay 2

Target peptide (SARS-CoV-2 spike, HR2 region): PDVDLGDISGINAS

The variants keep the heavy chain, the linker and the frameworks of Ab-95 (scFv order VH, a 15-residue (Gly4Ser)3 linker, VL).
VH: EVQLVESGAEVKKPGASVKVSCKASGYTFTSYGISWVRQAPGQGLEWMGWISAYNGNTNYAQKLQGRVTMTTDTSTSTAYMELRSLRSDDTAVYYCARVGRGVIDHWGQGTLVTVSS
VL: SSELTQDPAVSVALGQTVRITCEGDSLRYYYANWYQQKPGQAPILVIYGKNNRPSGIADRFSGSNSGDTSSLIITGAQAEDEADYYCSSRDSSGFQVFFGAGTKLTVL

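The starting antibody came from a phage panning campaign against this peptide. In library AAYL52, one, two or three CDR residues were substituted; doubles and triples were drawn at random. In AlphaSeq, yeast of one mating type display the scFv and yeast of the other type display the target. After mating in shaken culture at 30 °C for 16 h, diploids were selected and their barcode pairs sequenced. Each replicate has its own calibration line, from reference interactions of the BCL2 family. Each pool was mated in three replicate cultures.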

The parent's light chain CDRs are EGDSLRYYYAN, GKNNRPS, SSRDSSGFQVF; each variant's own CDRs replace them letter for letter. Every variant below is changed at S89 of the VL (sequential numbering). Numbers give log10(Kd / nM), so 0 is 1 nM and 3 is 1 µM. Smaller is tighter. Replicates are averaged; those with no signal do not enter the mean. A pair that was not seen in any replicate is written "nd"; this usually means weak binding, but a binder can also be missed.

EGDSLRYYYAN, GKNLRPS, SGRDSSGQQVF: 1.80 (3 of 3 replicates).
EGDELRYWYAN, GKNNRPS, SFRDSSGFQVF: 5.16 (1 of 3 replicates).
EGDSLRCYYWN, GKNNRPS, SIRDSSGFQVF: 4.08 (1 of 3 replicates).
EGDYLRYYYAN, GKNNRPS, SNVDSSGFQVF: 4.36 (1 of 3 replicates).
EGDSLRYYYAN, GKNNRPS, SNDDSFGFQVF: nd (0 of 3 replicates).
EGDSLRYYYAN, GKNNRPS, QMRDSSGFQVF: 2.78 (3 of 3 replicates).
EGDSLRYYYAN, GCNNRPS, SGGDSSGFQVF: 3.62 (3 of 3 replicates).
YGDSLRYYYAN, GVNNRPS, SFRDSSGFQVF: 3.91 (2 of 3 replicates).
EGDSQRYYYAN, GKNNRPS, SYRDSSGFQVF: 3.38 (2 of 3 replicates).
EGDSLRYYYAN, GKNSRMS, SCRDSSGFQVF: 2.08 (3 of 3 replicates).
EVDSLRYYYAW, GKNNRPS, SLRDSSGFQVF: 4.11 (1 of 3 replicates).
EGDSLRYYYAN, GKNNRPS, SGRDSSGFQCQ: 4.17 (3 of 3 replicates).
EGDSLRYYYAN, GKQGRPS, SYRDSSGFQVF: 3.23 (2 of 3 replicates).
EGDSLRYYYAN, GKCNRPS, RTRDSSGFQVF: nd (0 of 3 replicates).
EGDSLRYYYAN, GKNNRPS, SERDSSGFQVL: 3.80 (3 of 3 replicates).
EGDSLRYYYAN, GKINRPS, SLYDSSGFQVF: 4.36 (2 of 3 replicates).
EGDSLRYYYAN, GKNNRVS, SVRDVSGFQVF: 2.81 (3 of 3 replicates).
EGDSLREYYAN, GKNNRPS, SCRDSSGFSVF: 3.15 (3 of 3 replicates).
EGDYLRCYYAN, GKNNRPS, SKRDSSGFQVF: 4.35 (2 of 3 replicates).
EGDSLRYYFAN, GKMNRPS, SGRDSSGFQVF: 4.54 (3 of 3 replicates).
EGDSLRWYYAN, GKNNRPS, SKRDSSGFQYF: 2.91 (3 of 3 replicates).
EGDSLRYYFAN, GKNNRPK, SGRDSSGFQVF: 2.53 (3 of 3 replicates).
EGDSLRYYYAN, GKNNRPS, SARDSSGRAVF: 2.29 (3 of 3 replicates).
EGDSLRYYYAN, GKNTRPS, LHRDSSGFQVF: 2.14 (3 of 3 replicates).
EGDSLRYYYAN, GKTVRPS, SNRDSSGFQVF: 3.72 (2 of 3 replicates).
EGDSLRYYQAN, GKCNRPS, SDRDSSGFQVF: 4.27 (3 of 3 replicates).
EGDSIRYYYAN, GKNNRPS, SQSDSSGFQVF: 4.21 (1 of 3 replicates).
EGDSLRYYYKN, GKNNRPS, SYRDSSGGQVF: 5.56 (1 of 3 replicates).
EGASLRYYHAN, GKNNRPS, SDRDSSGFQVF: 2.91 (3 of 3 replicates).
EGDSLRYYYAN, GCNNRPS, SMRDSSGEQVF: 3.68 (2 of 3 replicates).
EGDSLRYYYAN, GKNNRPS, TTRDRSGFQVF: 3.10 (2 of 3 replicates).
EGDSLRYYYAS, GKNNRPS, SARDSSGPQVF: 3.89 (3 of 3 replicates).
EGDSLRYYYAN, GKTNRPS, SPRDSSGFQVF: 3.29 (3 of 3 replicates).
EGDSLRYNYNN, GKNNRPS, SLRDSSGFQVF: 1.95 (3 of 3 replicates).
EGDSLRYYYAN, VKNNRPS, SMRDSSGFQVT: 3.41 (3 of 3 replicates).
EGDSLRYYYAN, GKNNRPS, SCVDSSGFQVY: 3.34 (3 of 3 replicates).

Again, the first 2 entries without any signal:

{"CDR-L1": "EGDSLRYYYAN", "CDR-L2": "GKNNRPS", "CDR-L3": "SNDDSFGFQVF", "mean log10 Kd (nM)": "nd", "seen in": "0 of 3"}
{"CDR-L1": "EGDSLRYYYAN", "CDR-L2": "GKCNRPS", "CDR-L3": "RTRDSSGFQVF", "mean log10 Kd (nM)": "nd", "seen in": "0 of 3"}

Parent in this assay: reference entry 2.31, copy in this library 2.25. Empty control strains, which show no peptide, gave a signal in 28% of pairings with library AAYL52; the median was 3.91 and 95% of these signals were weaker than 2.90. No background was subtracted.

Source: Engelhart et al. 2022 (doi:10.1038/s41597-022-01779-4), MIT Lincoln Laboratory and A-Alpha Bio; data file from the FLAb repository.